Results from US11534441B2, “MAP4K1 inhibitors” (Blueprint Medicines Corporation, priority 2020, dated 2022).
Where two headings read alike, the source gives them in different places.

Sequences of proteins named here, by UniProt entry; tags and fusion partners are left off.
UniProt Q92918, whole entry: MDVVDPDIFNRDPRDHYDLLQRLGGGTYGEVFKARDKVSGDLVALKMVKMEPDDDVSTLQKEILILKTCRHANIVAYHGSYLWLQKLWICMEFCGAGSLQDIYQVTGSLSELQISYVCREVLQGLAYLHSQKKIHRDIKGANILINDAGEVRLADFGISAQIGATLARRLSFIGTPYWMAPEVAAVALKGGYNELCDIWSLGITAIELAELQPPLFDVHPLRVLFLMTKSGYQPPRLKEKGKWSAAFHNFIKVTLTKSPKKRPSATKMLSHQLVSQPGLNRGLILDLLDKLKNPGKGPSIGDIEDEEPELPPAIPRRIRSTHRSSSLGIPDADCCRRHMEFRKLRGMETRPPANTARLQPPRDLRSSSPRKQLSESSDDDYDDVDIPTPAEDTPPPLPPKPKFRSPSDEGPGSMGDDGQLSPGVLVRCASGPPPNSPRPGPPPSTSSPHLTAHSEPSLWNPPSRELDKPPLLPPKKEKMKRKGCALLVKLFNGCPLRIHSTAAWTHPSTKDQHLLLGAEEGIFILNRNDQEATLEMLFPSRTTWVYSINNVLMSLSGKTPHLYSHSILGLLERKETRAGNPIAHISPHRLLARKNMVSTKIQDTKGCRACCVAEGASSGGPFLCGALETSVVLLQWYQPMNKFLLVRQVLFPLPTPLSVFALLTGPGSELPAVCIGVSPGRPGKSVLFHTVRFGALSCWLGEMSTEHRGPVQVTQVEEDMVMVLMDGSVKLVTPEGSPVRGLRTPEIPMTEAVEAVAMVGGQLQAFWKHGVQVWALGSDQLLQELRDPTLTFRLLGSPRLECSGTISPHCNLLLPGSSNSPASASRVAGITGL

Legend:
expanded CD3+ T cells = assay: T cell enhancement of cytokines: IL2 measurement (HTRF) in expanded CD3+ T cells stimulated with anti-CD3/anti-CD28; conditions: read-out: IL-2 EC50, IL-2 measurement
Description: T cells are isolated from whole blood of healthy donors by immunomagnetic negative selection following manufacture's protocol (StemCell Technologies, human T cell isolation kit). Purity of isolated cells is assessed by flow cytometry and yields 95-98% CD3^+ T cells. For expansion of T cells, 1×10^6 cells/well are plated in serum free cell expansion media (ThermoFisher) containing 30 U of recombinant human IL2 (R&D) and stimulated with 25 ul of CD3/CD28 beads (Invitrogen) in 24 well plates for 3-4 days. T cells are then expanded in 175 cm flasks and maintained at a cell density of 1 to 2.5×10^6 cells/ml days by addition of ⅔ of fresh media every 2-3 days. After 10-14 days, cells are frozen in BamBanker freezing media (Thermo) and stored in liquid nitrogen.
For IL2 measurement, expanded CD3^+ T cells are dispensed at 100K cells/well (cultured in X-VIVO 10 Serum-free media) and are stimulated with plate-bound anti-CD3 and soluble anti-CD28 in the presence of vehicle or compound of the disclosure at various concentrations for 24 h. As outlined in the manufacturer's protocol (Cisbio), 16 μL of conditioned media is transferred to a white 384-well low volume plate. Following a 24 h incubation with the anti-IL2 antibodies, the homogenous time resolved fluorescence (HTRF) is measured.

MAP4K1 (HPK1) = MAP4K1 (HPK1) (Homo sapiens (Human), UniProt Q92918); assay: MAP4K1 (HPK1) biochemical enzymatic activity, electrophoretic mobility shift (EZReader 2), ATP at APPKM (26 μM)
Source text: MAP4K1 (HPK1) and relevant off-target enzymatic activity was monitored using the Perkin Elmer electrophoretic mobility shift technology platform—the EZReader 2. […] Within the linear, steady-state phase of the kinase enzymatic reaction, the mixed pool of phosphorylated (product) and non-phosphorylated (substrate) peptides was passed through the microfluidic system of the PerkinElmer EZ Reader 2, under an applied electric potential difference. The presence of the phosphate group on the product peptide provided a difference in mass and charge between that of the substrate peptide, resulting in a separation of the substrate and product pools in the sample (Perrin et al. 2010). As the product and substrate peptide mixture passes the lasers within the instrument, these pools are detected (λex=488 nm, λent=568 nm) and resolved as separate peaks. The ratio between these peaks reflects the activity of the compound at that concentration, in that well, under those conditions.
Inhibitors were dissolved in 100% DMSO at a stock concentration of 10 mM. A 100×, 10-point, 4-fold serial dilution of each inhibitor was created in 100% DMSO either manually or on a Hamilton STAR liquid handler, starting at a relevant concentration, usually 1 mM. A volume of 0.130 μL of each concentration was transferred to the relevant wells of a 384-well plate (Greiner 781 201) in duplicate using a TTPLabtech Mosquito nano-litre dispenser. Using a Multidrop Combi, the remaining constituents of the kinase reaction were added to the 130 nL of dosed compound as follows (see table below for final reaction details):
Enzyme activity assays at the ^APPKM for ATP or 1 mM ATP: In each well of a 384-well plate, 0.1-15 nM of untreated enzyme was incubated in a total of 13 μL of buffer (100 mM HEPES pH 7.5, 0.015% Brij 35, 10 mM MgCl2, 1 mM DTT) with 1.5 μM fluorescent peptid and 20-1000 μM ATP, at 25° C., for 60-180 minutes in the presence or absence of a dosed concentration series of compound (1% DMSO final concentration). The kinase reactions were stopped by the addition of 70 μl of Stop buffer (100 mM HEPES pH 7.5, 0.015% Brij 35, 35 mM EDTA and 0.2% of Coating Reagent 3 (Caliper Lifesciences)). The plates were read on a Caliper EZReader 2 as described above.

[1] = read-out: MAP4K1 IC50, class designation
[2] = read-out: MAP4K1 IC50, numeric value

EC50 (expanded CD3+ T cells; class designation)	EC50 (expanded CD3+ T cells; numeric value)	IC50 (MAP4K1 (HPK1); [1])	IC50 (MAP4K1 (HPK1); [2])	Compound
< 35 nM	9.3 nM	< 0.3 nM	–	C[C@@H]1c2nc(Nc3cc4c(C(C)(C)N)cnc(OCC(F)(F)F)c4cn3)ccc2C(=O)OC1(C)C
< 35 nM	21.1 nM	0.31 to 1 nM	–	CNc1ncc(C(C)(C)N)c2cc(Nc3ccc4c(n3)CCCC4=O)ncc12
–	–	0.31 to 1 nM	–	CC[C@@](C)(N)c1cnc(NC2CC2)c2cnc(Nc3ccc4c(n3)[C@@H](C)[C@H](C)OC4=O)cc12
–	–	1.1 to 10 nM	2.6 nM	COc1ncc(C(C)(N)C2CC2)c2cc(Nc3ccc4c(n3)[C@@H](C)[C@H](C)OC4=O)ncc12 (single isomer, unassigned) [100]
–	–	< 0.3 nM	0.13 nM	COc1ncc(C(C)(N)C2CC2)c2cc(Nc3ccc4c(n3)[C@@H](C)[C@H](C)OC4=O)ncc12 (single isomer, unassigned) [99]
–	–	< 0.3 nM	–	CNc1ncc(C(C)(C)N)c2cc(Nc3ccnc(N4CC[C@@H]4C)n3)ncc12
–	–	> 10 nM	–	CCOc1ccc(C(C)(C)NC)c2cc(Nc3ccnc(C(C)(C)F)n3)ncc12
< 35 nM	18.9 nM	1.1 to 10 nM	1.6 nM	CNc1ncc(C(C)(C)N)c2cc(Nc3ccnc(C(C)(C)C)n3)ncc12
–	–	0.31 to 1 nM	0.36 nM	COc1ncc(C(C)(N)C2CC2)c2cc(Nc3ccc4c(n3)C(C)(C)OC4=O)ncc12 (centres unmarked)
< 35 nM	6.6 nM	< 0.3 nM	0.19 nM	COCC(C)(N)c1cnc(OC)c2cnc(Nc3ccc4c(n3)C(C)C(C)OC4=O)cc12 (centres unmarked)
